This is an account of results in publication PMC3866371 (Neuropharmacology, 2013).

Amino acid sequences for entries named in this document (tags omitted). Residues count along the entry.
UniProt P04757, 26-499: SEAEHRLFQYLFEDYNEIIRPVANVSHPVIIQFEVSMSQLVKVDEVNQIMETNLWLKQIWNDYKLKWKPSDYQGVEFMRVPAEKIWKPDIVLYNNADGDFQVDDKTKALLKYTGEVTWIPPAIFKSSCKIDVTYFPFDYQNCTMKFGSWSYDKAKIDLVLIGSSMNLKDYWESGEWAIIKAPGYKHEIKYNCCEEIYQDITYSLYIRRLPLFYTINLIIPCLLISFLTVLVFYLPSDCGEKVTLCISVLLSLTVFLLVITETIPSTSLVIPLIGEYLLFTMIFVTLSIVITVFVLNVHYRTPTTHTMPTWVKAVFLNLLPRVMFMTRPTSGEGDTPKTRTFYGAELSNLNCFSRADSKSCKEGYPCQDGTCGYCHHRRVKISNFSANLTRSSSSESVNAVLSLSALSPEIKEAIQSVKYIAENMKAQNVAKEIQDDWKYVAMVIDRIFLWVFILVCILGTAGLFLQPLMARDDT
UniProt P12392, 21-495: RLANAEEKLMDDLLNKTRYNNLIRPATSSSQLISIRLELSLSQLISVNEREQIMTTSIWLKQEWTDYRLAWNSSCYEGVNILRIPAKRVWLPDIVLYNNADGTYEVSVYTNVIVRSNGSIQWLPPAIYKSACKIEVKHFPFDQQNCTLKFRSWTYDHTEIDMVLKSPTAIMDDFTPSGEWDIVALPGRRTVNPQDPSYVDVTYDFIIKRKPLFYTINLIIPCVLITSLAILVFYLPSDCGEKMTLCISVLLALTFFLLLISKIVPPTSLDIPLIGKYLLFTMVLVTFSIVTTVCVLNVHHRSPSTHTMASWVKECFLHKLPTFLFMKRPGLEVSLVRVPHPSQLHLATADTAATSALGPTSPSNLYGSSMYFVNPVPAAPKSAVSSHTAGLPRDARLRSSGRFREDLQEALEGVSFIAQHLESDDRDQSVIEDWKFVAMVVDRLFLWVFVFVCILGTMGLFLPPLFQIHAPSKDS
UniProt P30926, 22-498: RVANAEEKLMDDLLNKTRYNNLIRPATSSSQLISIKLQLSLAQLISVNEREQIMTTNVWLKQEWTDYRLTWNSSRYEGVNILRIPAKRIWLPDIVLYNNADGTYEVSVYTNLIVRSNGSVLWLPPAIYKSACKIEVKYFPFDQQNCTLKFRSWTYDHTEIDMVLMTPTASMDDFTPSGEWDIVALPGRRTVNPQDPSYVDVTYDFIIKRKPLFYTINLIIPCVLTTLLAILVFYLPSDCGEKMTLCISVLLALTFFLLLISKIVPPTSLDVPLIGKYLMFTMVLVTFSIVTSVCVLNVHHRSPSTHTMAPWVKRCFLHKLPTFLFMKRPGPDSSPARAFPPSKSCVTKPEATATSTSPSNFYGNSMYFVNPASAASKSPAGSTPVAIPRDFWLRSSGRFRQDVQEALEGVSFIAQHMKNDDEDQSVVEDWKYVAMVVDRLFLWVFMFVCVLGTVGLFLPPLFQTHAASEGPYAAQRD
UniProt P32297, 32-505: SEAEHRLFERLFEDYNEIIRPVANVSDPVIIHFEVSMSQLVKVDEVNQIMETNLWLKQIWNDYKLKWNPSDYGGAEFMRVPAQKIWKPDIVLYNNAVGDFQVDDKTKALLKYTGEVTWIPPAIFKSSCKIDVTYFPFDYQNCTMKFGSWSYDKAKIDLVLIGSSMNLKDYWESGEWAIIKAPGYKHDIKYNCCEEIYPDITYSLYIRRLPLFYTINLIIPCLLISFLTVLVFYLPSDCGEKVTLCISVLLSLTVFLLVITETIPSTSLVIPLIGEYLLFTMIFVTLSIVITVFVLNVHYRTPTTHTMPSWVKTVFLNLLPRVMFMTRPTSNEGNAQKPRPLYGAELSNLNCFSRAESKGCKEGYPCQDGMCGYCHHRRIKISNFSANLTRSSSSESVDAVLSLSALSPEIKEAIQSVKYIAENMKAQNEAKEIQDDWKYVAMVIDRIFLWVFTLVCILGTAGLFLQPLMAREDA

The structures appear in SMILES notation. Like-named read-outs stand apart in the source and are kept apart here.

For experiment [1], the target named is T1, rat α3β4 nAChR (Rattus norvegicus, UniProt P04757+P12392). Briefly: Competition binding with [^125I]AT-1012 as radioligand, HEK cell membranes.
Experiment [2] concerns the target T1, rat α3β4 nAChR. Briefly: Competition binding with [^3H]epibatidine as radioligand, HEK cell membranes.
Experiment [3] addresses T2, human α3β4α5 nAChR (Homo sapiens, UniProt P30926+P32297). The experiment in a line: Competition binding with [^125I]AT-1012 as radioligand, HEK cell membranes. To be noted: read-out: Binding affinity (Ki) at human α3β4α5 nAChR; radioligand [^125I]AT-1012; average ± SD.
Experiment [4] addresses T2, human α3β4α5 nAChR. To be noted: read-out: Binding affinity (Ki) at human α3β4α5 nAChR.

As usually defined, the Ki is the dissociation constant of the complex between target and ligand, obtained from inhibition or displacement. As to `CNC1(C)C2CCC(C2)C1(C)C` (stereo not shown) [Mecamylamine], the Ki on rat α3β4 nAChR [1] and on rat α3β4 nAChR [2] was > 10000 nM throughout.
`CN1C2CCCC1CC(Nc1ccccc1Br)C2` (stereo not shown) [AT-1001]: the Ki at human α3β4α5 nAChR [3] came out at 1.75 ± 0.14 nM; at human α3β4α5 nAChR [4], 3.34 ± 0.03 nM.
